Tested on: PBMC
Test: Inhibition of LPS-induced TNFalpha production in human PBMC
Format: functional, cell-based

**Q.** How did the IC50 turn out when `COc1ccc(C2CNC(=O)C2)cc1OC1CCCC1` (stereo unspecified) [ROLIPRAM] was run?
**A.** 60 nM
